Measured values taken from patent US5891882A, “Benzopyranopyrrole and benzopyranopyridine α-1 adenergic compounds” (priority 1997, dated 1999).

The chains behind the UniProt entries cited, without tags or fusion partners.
UniProt P23944, whole entry: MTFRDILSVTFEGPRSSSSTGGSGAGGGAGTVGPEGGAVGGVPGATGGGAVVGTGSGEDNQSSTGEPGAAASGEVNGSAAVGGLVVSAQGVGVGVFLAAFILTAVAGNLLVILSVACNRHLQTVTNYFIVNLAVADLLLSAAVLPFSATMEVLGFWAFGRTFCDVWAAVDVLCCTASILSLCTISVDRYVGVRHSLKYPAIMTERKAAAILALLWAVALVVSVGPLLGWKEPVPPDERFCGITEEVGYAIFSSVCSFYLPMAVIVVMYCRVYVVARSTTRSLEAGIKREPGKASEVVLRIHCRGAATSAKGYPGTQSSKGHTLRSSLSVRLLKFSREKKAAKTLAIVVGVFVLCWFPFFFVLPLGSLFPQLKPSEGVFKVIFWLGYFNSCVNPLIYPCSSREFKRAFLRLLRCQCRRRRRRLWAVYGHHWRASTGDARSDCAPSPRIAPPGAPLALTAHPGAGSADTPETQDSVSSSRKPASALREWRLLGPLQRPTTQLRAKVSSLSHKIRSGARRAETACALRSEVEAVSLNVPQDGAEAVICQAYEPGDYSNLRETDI

Assays:
[1] = biological target: α-1 Adrenoceptors (Rat Aorta) (Rattus norvegicus, UniProt P23944); assay: Functional antagonism at α-1 adrenoceptors, rat aorta
[2] = biological target: T1, α-1A adrenoreceptor (canine prostate smooth muscle) (Canis lupus, UniProt A0A8I3NK63); assay: Functional antagonism: inhibition of phenylephrine-induced contraction of canine prostate strips; details: Schild plot
T1 sequence (A0A8I3NK63 1-466): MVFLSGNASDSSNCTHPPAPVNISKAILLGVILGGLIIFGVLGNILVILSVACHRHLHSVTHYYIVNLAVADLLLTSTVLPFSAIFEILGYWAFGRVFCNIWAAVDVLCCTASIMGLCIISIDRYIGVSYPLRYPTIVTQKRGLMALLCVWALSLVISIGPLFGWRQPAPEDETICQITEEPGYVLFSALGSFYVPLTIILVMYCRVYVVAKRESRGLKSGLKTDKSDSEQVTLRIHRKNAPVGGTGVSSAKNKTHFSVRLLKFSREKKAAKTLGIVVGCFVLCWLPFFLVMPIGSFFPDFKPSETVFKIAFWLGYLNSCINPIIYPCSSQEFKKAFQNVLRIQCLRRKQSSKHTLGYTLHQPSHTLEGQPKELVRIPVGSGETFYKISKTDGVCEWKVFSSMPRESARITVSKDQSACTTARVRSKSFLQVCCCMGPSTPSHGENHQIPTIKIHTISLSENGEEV

COc1cc2nc(N3CCN(C(=O)C4COc5ccccc5O4)CC3)nc(N)c2cc1OC (centres unmarked) [Doxazosin, doxazosin]
In Vitro Characterization (pA2) Rat Aorta [1]: 8.97

COc1cc2nc(N3CCN(C(=O)c4ccco4)CC3)nc(N)c2cc1OC [Prazosin, prazosin]
In Vitro Characterization (pA2) Dog Prostate [2]: 8.46
